Measured values: patent US8623354B2, “Therapeutic compositions comprising hyaluronan and therapeutic antibodies as well as methods of treatment” (Alchemia Oncology Pty Limited, priority 2005, dated 2014)

Tests used:
[1] = test system: mice bearing human colon cancer xenografts; assay: Survival of mice bearing human colon cancer xenografts (Example 3); type: in vivo; conditions: monotherapy, before experimental endpoint day 120
Description: FIG. 3 is a graphical representation of % survival of mice bearing human colon cancer xenografts where the mice are treated with hyaluronan formulated with cetuximab (HyERB) (150/0.5) or ERB (0.5). […] The survival data can be considered as a surrogate indicator of an increased therapeutic index.
(§1) Treatment with (i) saline, (ii) HA, (iii) cetuximab (ERB), (iv) the formulation comprising HA & cetuximab (HyERB), (v) cetuximab/irinotecan and (vi) HA & cetuximab/HA & irinotecan (HyERB/HyCAMP) was commenced approximately 4-8 weeks after the tumor volume was in the range of 50-100 mm^2. Therapies were delivered by bolus IV on day 1 and 4 for a total of 5-weeks. Administration of irinotecan or HyCAMP was day 1 of a 7-day cycle for a total of 5-weeks. […] Table 4 below provides the dosage components and the mean tumor volume of each treatment group at commencement of treatment.
The overall animal survival time was calculated as the time in days that the animal lived after the commencement of treatment which will be designated Day 1.

[2] = test system: LIM1215 human colon xenografts; assay: Tumor volume and classification of tumor progression, cetuximab with or without HA, LIM1215 xenograft model (Example 3); type: in vivo; conditions: for Complete Remission: tumor not palpable; for Static Tumor: tumor volume 50-150% of initial; for Partial Remission: tumor volume <50% of initial; for Progressing Tumor: tumor volume >150% of initial
Text: To evaluate the effect of hyaluronan on the efficacy of therapeutic doses of cetuximab in the treatment of both colon cancer in nude mice as either monotherapy or in combination with irinotecan or its hyaluronan formulation (HyCAMP). Specific consideration of the follow efficacy parameters: • Primary Tumor Volume • Cancer Metastasis • Treatment toxicity in relation to • Body mass • Organ mass • Survival Test and Control Articles
The test articles and dosages which will be used in the study are as follows: • Hyaluronic Acid (800-900 kD modal molecular weight); dosage 150 mg/kg or 26.6 mg/kg • Cetuximab (Erbitux; or ERB); dosage 0.5 mg/kg • Irinotecan Hydrochloride (Camptosar or CPT-11); dosage 50 mg/kg • HyERB (150/0.25) containing 150 mg/kg HA & 0.25 mg/kg cetuximab • HyERB (150/0.5) containing 150 mg/kg HA & 0.5 mg/kg cetuximab • HyCAMP (26.6/50) containing 26.6 mg/kg HA & 50 mg/kg irinotecan Human Colon Carcinoma Cell Line
The human colon carcinoma cell line LIM1215 colon carcinoma cell line was routinely cultured as monolayer in 75 cm^2 culture flasks in RPMI1640 media supplemented with 5% v/v fetal calf serum, 10 μg/ml bovine insulin, 1 mM hydrocortisone and antibacterial/antimycotic stock. For generation of the primary tumor and injection into mice, cells were grown to 80% confluency, trypsinized in 0.05% trypsin/0.01% w/v EDTA solution, washed twice by centrifugation in a Beckman TJ-6 bench centrifuge at 400 gav for 10 min, and counted using a Coulter counter then resuspended in RPMI 1640 media at 2×10^8 cell/ml. This cell line was chosen due to its CD44 receptor, its responsiveness to irinotecan only or when formulated with HA (HyCAMP) compared with irinotecan chemotherapy in a xenograft model and that cellular proliferation is controlled by TGF-a/EGF-R autocrine loop.
Athymic CBA/WEHI nude female mice, were maintained under specific pathogen-free conditions, with sterilized food and water available ad libitum. Each mouse received one injection containing 1×10^7 cells in 50-100 μl. The cells were injected with a 26-gauge needle into the mammary fat pad directly under the first nipple.
as §1
The mice were randomly distributed into each of six treatment groups (n=8 per group). Individual mice were placed in an injection box and treatment administration was via the tail vein using a 26-gauge needle. To ensure the accuracy of each administered dosage, syringes were weighed before and after injection using an analytical; four decimal place balance.
Individual injections were prepared according to individual mouse masses, with the aim of delivering 50 mg/kg irintoecan (equivalent to human therapeutic dose of 208 mg/m^2; MIMS 1999). Single batches of 10 mg/mL solution were prepared and packaged into single use 100 mL sterile glass vials and undergo standard chemical and microbiology testing. Hyaluronan formulated with irinotecan [HyCAMP(150/50)] was prepared by mixing a portion of the 4 mg/ml irinotecan stock with the hyaluronan solution to a final HA concentration equivalent to 150 mg/kg of mouse mass and 50 mg/kg irinotecan. Hyaluronan formulated with cetuximab [HyERB(150/0.5)] was prepared by mixing a portion of 2 mg/mL cetuximab stock with the HA solution to a final HA concentration of 150 mg/kg of mouse mass and 0.5 mg/kg cetuximab. […]

Cetuximab [ERB(0.5)]
58 days: Day at which tumors reached a 400% increase in tumor volume ([2]; monotherapy, cetuximab 0.25 mg/kg with or without 150 mg/kg HA)
14%: Progressing Tumor ([2]; Day 71) | Progressing Tumor ([2]; Day 92) | Progressing Tumor ([2]; Day 113)
100%: Static Tumor ([2]; Day 15) | Static Tumor ([2]; Day 46)
86%: Static Tumor ([2]; Day 71) | Static Tumor ([2]; Day 92) | Static Tumor ([2]; Day 113)
28.6%: Progressing Tumor ([2]; Day 120)
71.4%: Static Tumor ([2]; Day 120)
0%: Complete Remission ([2]; Day 15, nude mice, IV day 1, 4 x 5 weeks) | Partial Remission ([2]; Day 15) | Progressing Tumor ([2]; Day 15) | Complete Remission ([2]; Day 46) | Partial Remission ([2]; Day 46) | Progressing Tumor ([2]; Day 46) | Complete Remission ([2]; Day 71) | Partial Remission ([2]; Day 71) | Complete Remission ([2]; Day 92) | Partial Remission ([2]; Day 92) | Complete Remission ([2]; Day 113) | Partial Remission ([2]; Day 113) | Complete Remission ([2]; Day 120) | Partial Remission ([2]; Day 120)
53 days and 85 days: day on which a mouse was humanely killed because tumor volume was over 1000 mm^3 [1]
dose dependant: Tumor response, dose dependence ([2]; cetuximab (0.25) compared with cetuximab (0.5) mg/kg)

Values joined by “and” are separate entries in the source; they are usually repeats but may differ in a detail not shown here. Equal entries are not always repeated.
